The target of assay [1] is Nociceptin receptor (Homo sapiens) (UniProt P41146). As to the kind of experiment: Agonist activity at human NOP expressed in CHO cells membrane assessed as increase in [35S]GTPgammaS binding incubated for 60 mins relative to N/OFQ. To be noted: filed as agonist.
Assay [2] concerns the target Mu-type opioid receptor (Homo sapiens) (UniProt P35372). As to the kind of experiment: Agonist activity at human MOP expressed in CHO cells membrane assessed as increase in [35S]GTPgammaS binding incubated for 60 mins relative to DAMGO.
In assay [3] the target is Delta-type opioid receptor (Homo sapiens) (UniProt P41143). As to the kind of experiment: Agonist activity at human DOP expressed in CHO cells membrane assessed as increase in [35S]GTPgammaS binding incubated for 60 mins relative to DPDPE.
The target in assay [4] is Kappa-type opioid receptor (Homo sapiens) (UniProt P41145). As to the kind of experiment: Agonist activity at human KOP expressed in CHO cells membrane assessed as increase in [35S]GTPgammaS binding incubated for 60 mins relative to U69593.
The species named for a further assay is Homo sapiens. As to the kind of experiment: Selectivity ratio of Ki for human NOP to Ki for human MOP.

The chains behind the UniProt entries cited, without tags or fusion partners. Where a name states a change or a piece, a line headed by the entry shows the natural chain unless it says otherwise.
UniProt P41146: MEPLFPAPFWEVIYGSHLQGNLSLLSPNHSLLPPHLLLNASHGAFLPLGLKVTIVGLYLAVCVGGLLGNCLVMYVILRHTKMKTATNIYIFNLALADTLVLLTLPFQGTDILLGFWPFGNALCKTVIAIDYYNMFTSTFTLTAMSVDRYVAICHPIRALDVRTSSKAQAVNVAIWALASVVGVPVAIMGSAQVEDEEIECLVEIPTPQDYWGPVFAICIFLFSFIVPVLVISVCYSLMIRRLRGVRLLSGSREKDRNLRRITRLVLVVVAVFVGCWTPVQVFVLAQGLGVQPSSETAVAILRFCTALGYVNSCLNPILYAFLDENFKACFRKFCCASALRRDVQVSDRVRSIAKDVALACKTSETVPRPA
UniProt P35372, whole entry, looked up: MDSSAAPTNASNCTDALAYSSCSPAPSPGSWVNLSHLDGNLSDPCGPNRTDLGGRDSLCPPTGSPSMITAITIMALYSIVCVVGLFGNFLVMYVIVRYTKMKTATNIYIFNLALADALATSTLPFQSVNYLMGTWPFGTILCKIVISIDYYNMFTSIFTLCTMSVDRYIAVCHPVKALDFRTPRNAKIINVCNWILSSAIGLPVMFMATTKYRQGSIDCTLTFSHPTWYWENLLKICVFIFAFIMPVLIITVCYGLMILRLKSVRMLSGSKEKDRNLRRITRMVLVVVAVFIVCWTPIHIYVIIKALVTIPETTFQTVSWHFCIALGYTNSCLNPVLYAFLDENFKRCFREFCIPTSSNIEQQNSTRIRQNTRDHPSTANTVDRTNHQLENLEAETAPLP
UniProt P41143, whole entry, looked up: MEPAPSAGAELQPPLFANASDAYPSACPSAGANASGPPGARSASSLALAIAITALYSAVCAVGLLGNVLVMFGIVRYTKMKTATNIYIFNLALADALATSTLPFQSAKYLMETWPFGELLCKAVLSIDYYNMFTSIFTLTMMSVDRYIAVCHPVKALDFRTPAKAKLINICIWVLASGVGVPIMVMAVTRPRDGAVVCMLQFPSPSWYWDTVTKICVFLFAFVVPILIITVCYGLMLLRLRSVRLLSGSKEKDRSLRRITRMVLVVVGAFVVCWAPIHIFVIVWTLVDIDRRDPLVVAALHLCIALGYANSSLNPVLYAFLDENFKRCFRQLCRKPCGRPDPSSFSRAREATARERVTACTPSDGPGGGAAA
UniProt P41145: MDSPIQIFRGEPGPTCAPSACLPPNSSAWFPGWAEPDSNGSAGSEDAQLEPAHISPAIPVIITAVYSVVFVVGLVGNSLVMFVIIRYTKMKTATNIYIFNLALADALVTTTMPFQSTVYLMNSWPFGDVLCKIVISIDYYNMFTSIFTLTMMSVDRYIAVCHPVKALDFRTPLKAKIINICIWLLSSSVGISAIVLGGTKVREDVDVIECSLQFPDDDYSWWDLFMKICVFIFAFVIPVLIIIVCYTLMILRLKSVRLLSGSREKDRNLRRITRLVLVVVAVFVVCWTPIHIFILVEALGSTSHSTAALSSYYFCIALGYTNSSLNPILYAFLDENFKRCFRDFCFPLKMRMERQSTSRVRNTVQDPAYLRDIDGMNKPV

Consider `CC(=O)NCc1cc2ccccc2n1C1CCN([C@H]2CC[C@@H](C(C)C)CC2)CC1`, for which the Activity was determined as 94.1% in assay [1], 26.2% in assay [2] and 45.9% in assay [3] (filed as agonist).

On to `CC(C)[C@H]1CC[C@@H](N2CCC(n3c(CNC(=O)c4cccnc4)cc4ccccc43)CC2)CC1`, for which the Activity in assay [1] was 85.9%; in assay [2] (filed as agonist), 44.2%; in assay [3] (filed as agonist), 45.7%; in assay [4], 5.4%.

Take `CC(C)[C@H]1CC[C@@H](N2CCC(n3c(CCO)cc4ccccc43)CC2)CC1`: the results for the Activity in assay [1], in assay [2] and in assay [4] were 87.8%, 34.9% and 6.7%, respectively.

`CC(C)[C@H]1CC[C@@H](N2CCC(n3c(CN4CCS(=O)(=O)CC4)cc4ccccc43)CC2)CC1`: the Activity was found to be 91.2% in assay [1], 29.8% in assay [2] and 1.3% in assay [4].

With `CCOC(=O)NCc1cc2ccccc2n1C1CCN([C@H]2CC[C@@H](C(C)C)CC2)CC1`, the Activity was found to be 96.7% in assay [1], 43.5% in assay [2] (filed as agonist) and 50.8% in assay [3] (filed as agonist).

With `CC(C)[C@H]1CC[C@@H](N2CCC(n3c(CO)cc4ccccc43)CC2)CC1`, the Activity in assay [1] stood at 102%; in assay [2] it was 24.6%; in assay [3], 38.1%; in assay [4], 1%.

Consider `CC(C)[C@H]1CC[C@@H](N2CCC(n3ccc4ccccc43)CC2)CC1`, for which the Ratio Ki in the assay filed under Homo sapiens came out at 38.4.

For the compound `CC(C)[C@H]1CC[C@@H](N2CCC(n3c(CNC(=O)c4ccc(C(F)(F)F)o4)cc4ccccc43)CC2)CC1`, the values for the Activity in assay [1], in assay [2] and in assay [3] (filed as agonist) were 61.9%, 34.5% and 42.1%, respectively.

Regarding `CC(C)[C@H]1CC[C@@H](N2CCC(n3c(CCN)cc4ccccc43)CC2)CC1`, the Activity in assay [1] came to 102%; in assay [2] it was 39.7%; in assay [4], 21.9%.

As for `CC(C)[C@H]1CC[C@@H](N2CCC(n3c(CNS(C)(=O)=O)cc4ccccc43)CC2)CC1`, the Activity came out at 84% in assay [1], 37.6% in assay [2], 48.8% in assay [3] (filed as agonist) and 36.1% in assay [4].

Values taken from ChEMBL document CHEMBL5325508, “Discovery and structure-activity relationships (SAR) of a novel class of 2-substituted N-piperidinyl indole-based nociceptin opioid receptor ligands” (2023).
